Source: patent US12534742B2, “Compound for regulating gene editing efficiency and application thereof” (Shanghai Institute of Organic Chemistry, Chinese Academy of …, priority 2018, dated 2026)

Sequences of proteins named here, by UniProt entry; tags and fusion partners are left off.
UniProt Q99ZW2, whole entry: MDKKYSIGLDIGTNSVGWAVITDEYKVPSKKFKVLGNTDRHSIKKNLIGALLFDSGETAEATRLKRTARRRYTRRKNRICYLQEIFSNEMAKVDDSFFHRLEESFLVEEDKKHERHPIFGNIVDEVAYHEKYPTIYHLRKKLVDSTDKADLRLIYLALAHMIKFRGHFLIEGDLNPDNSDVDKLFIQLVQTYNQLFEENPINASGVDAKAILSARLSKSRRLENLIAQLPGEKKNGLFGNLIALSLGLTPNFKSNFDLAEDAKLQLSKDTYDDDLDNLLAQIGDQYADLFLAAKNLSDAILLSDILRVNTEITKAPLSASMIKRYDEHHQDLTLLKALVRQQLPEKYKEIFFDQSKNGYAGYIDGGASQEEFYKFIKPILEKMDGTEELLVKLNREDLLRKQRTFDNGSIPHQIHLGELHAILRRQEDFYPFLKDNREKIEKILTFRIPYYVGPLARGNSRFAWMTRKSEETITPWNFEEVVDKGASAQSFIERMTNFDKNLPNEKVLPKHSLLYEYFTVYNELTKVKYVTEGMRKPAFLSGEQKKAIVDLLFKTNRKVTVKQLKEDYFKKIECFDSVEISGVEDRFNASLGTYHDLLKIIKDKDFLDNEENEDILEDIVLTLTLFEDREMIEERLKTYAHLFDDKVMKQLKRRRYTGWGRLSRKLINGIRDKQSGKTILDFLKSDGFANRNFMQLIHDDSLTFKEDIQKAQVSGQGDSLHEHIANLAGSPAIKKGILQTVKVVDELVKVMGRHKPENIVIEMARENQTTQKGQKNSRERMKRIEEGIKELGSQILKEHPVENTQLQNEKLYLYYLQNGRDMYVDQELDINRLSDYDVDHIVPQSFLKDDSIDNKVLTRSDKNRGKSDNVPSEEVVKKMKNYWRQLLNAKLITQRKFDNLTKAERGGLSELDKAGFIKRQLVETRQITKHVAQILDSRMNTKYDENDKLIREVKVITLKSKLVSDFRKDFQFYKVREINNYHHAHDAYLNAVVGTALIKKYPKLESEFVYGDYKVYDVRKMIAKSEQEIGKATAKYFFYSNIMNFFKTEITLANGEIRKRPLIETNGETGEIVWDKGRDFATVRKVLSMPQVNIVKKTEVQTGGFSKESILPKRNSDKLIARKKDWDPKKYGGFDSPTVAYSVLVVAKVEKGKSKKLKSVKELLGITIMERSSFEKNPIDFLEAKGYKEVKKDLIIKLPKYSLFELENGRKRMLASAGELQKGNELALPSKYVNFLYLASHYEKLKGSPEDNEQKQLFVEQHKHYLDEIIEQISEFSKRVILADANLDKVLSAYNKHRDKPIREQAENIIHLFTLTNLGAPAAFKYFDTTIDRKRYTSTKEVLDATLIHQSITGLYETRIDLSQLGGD

Target: CRISPR/Cas9 from Streptococcus pyogenes (SpyCas9) (Streptococcus pyogenes serotype M1, UniProt Q99ZW2)
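Further: Cell-based reporter with a SpyCas9 target site placed in EGFP, where NHEJ repair of the cut restores the reading frame, read-out is the share of EGFP-positive cells, lowered by inhibitors.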

Row | SMILES | IC50 [µM]
1 | C=CC#N | > 100
2 | C=CC(N)=O | > 100
